Data as given in patent US20060083680A1, “Diphenyl ether derivatives and their use for imaging serotonin transporters” (The Trustees of the University of Pennsylvania, priority 2004, published 2006).

By UniProt entry, the sequences of proteins in these tests, tags left out.
UniProt P31652, whole entry: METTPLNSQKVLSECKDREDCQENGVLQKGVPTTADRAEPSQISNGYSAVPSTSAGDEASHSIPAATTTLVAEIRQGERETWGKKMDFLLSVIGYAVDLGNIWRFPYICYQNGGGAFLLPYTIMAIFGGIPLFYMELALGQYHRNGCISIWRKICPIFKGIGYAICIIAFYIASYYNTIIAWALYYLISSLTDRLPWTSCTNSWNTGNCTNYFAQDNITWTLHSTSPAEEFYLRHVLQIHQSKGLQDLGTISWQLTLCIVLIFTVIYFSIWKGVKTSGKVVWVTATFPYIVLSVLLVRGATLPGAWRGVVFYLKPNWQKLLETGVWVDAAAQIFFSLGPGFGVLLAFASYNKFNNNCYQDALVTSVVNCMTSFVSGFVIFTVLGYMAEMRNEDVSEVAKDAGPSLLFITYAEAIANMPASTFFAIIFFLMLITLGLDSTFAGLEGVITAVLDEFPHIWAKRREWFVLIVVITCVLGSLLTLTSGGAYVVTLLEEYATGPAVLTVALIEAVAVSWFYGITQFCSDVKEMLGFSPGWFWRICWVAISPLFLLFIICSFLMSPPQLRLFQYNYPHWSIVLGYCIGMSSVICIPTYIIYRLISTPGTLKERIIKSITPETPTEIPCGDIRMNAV

Legend:
[1] = Biodistribution in rats after iv injection (organs)
serotonin transporters = serotonin transporters (Rattus norvegicus, UniProt P31652); assay: Regional brain distribution and specific binding ratio in rats; conditions: iv

SMILES: CN(C)Cc1ccccc1Sc1ccc(I)cc1N
- brain uptake ([1]; 2 h after i.v. injection): 0.42 % dose/brain
- brain uptake ([1]; 4 h after i.v. injection): 0.11 % dose/brain
- Regional brain distribution HY (hypothalamus) (serotonin transporters; 120 min): 0.44 % dose/g
- Regional brain distribution HY (hypothalamus) (serotonin transporters; 240 min): 0.13 % dose/g
